The numbers were not newly measured in US10058550B2, “Methods of treating heart failure” (priority 2015, dated 2018), which cites them from elsewhere.

For this series the following is noted: cited from earlier work.

In the case of Apelin-13, the plasma half-life is listed as under 5 min.
